Measured values published in ChEMBL document CHEMBL5725924, “Substituted benzimidazole-type piperidine compounds and uses thereof” (2017).

Target: Mu-type opioid receptor (Homo sapiens, UniProt P35372)
Assay: In Vitro Kappa-Opioid Receptor Binding Assay: κ-Opioid Receptor Binding Assay Procedures: Membranes from recombinant HEK-293 cells expressing the human kappa opioid receptor (kappa) (cloned in house) were prepared by lysing cells in ice cold hypotonic buffer (2.5 mM MgCl2, 50 mM HEPES, pH 7.4) (10 mL/10 cm dish) followed by homogenization with a tissue grinder/Teflon pestle. Membranes were collect

Q: For `O=C(O)CN1CCCC[C@@H]1c1nc2ccccc2n1[C@H]1C[C@H]2CCC[C@@H](C1)N2[C@@H]1C[C@@H]2CCCC[C@@H](C2)C1`, which Ki is on record?
A: The Ki was 11 nM.
